Here are results for one substance from publication PMC10284923 (The ISME Journal, 2023).

This assay addresses MITS9220_PhnD1. The note with it: read-out: Dissociation constant (KD).

For orientation: Kd means a measure of binding affinity in units of concentration.

For phosphite [Pt], the Kd was determined as 670 ± 100 nM.
